# Patent EP4840921A1, “HOT MELT ADHESIVE, METHOD FOR PRODUCING SAME, AND COATING METHOD” (dated 2026)
# What was measured:
# [1] = Thermogravimetric (TG) measurement, 10% weight loss temperature; settings: temperature increased at 10°C/min
# Description: Here, the 10% weight loss temperature in TG measurement means a temperature at a time point at which, in TG measurement when the temperature of the antibacterial agent having a paraben structure is increased at 10°C/min, the weight has decreased by 10% by weight relative to the weight before the temperature increase (that is, the weight of the antibacterial agent having a paraben structure has become 90% relative to the weight before the temperature increase). Hereinafter, in the present specification, the 10% weight loss temperature in TG measurement may be referred to as "T10".
# [2] = Checking of vaporization of antibacterial agent during preparation (kneading) of hot-melt adhesive
# Description: A method for producing a hot-melt adhesive in accordance with an embodiment of the present invention includes a step of kneading an antibacterial agent having a paraben structure and having a 10% weight loss temperature of not lower than 200°C in thermogravimetric measurement and a composition containing a base polymer and a tackifier, while maintaining a temperature of not higher than 140°C. […] Kneading the antibacterial agent having a paraben structure and the composition containing the base polymer and the tackifier while maintaining a temperature of not higher than 140°C is preferable because vaporization of the antibacterial agent having a paraben structure during kneading can be prevented. […]
# In a case where deposits were present on the top plate of the container, the deposits were collected, and an FT-IR spectrum was measured. A case where an absorption peak derived from the antibacterial agent was detected in the FT-IR spectrum was determined as the "presence" of vaporization, and a case where an absorption peak derived from the antibacterial agent was not detected was determined as the "absence" of vaporization.
Structure (SMILES),T10 (10% weight loss temperature in TG measurement) [1],Vaporization of antibacterial agent during kneading ([2]; kneaded at 140°C),Vaporization of antibacterial agent during kneading ([2]; kneaded at 160°C for 1 hour)
CCCCC(CC)COC(=O)c1ccc(O)cc1 (stereo not drawn),T10: 208.6 °C,–,–
O=C(OCc1ccccc1)c1ccc(O)cc1,T10: 238.2 °C,–,–
CCCCCCCCCCCCCCCCOC(=O)c1ccc(O)cc1,T10: 271.0 °C,–,–
CCCCCCOC(=O)c1ccc(O)cc1,T10: 210.3 °C,vaporization was not observed,vaporization was observed
